Values quoted from earlier work in patent publication EP2322149A1, “Methods and compositions for the treatment of ischemia” (Universidad del Pais Vasco, priority 2009, dated 2011).
Counter-ions that a name gives are not always drawn.

Protein sequences, listed by entry. Tags and fused reporters are not part of them.
UniProt Q93086, whole entry, species assumed: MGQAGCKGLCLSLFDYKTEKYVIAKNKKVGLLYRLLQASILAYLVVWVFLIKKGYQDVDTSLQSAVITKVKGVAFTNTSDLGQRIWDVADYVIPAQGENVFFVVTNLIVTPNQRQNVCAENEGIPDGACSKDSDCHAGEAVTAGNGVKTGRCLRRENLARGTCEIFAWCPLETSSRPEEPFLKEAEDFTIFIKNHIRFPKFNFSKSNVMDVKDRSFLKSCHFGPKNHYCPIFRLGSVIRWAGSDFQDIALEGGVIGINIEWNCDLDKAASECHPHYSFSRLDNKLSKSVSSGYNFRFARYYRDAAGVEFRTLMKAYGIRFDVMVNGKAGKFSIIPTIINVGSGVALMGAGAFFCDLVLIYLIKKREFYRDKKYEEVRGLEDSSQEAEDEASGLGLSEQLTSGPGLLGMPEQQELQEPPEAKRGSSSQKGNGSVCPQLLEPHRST
UniProt Q99572, whole entry, species assumed: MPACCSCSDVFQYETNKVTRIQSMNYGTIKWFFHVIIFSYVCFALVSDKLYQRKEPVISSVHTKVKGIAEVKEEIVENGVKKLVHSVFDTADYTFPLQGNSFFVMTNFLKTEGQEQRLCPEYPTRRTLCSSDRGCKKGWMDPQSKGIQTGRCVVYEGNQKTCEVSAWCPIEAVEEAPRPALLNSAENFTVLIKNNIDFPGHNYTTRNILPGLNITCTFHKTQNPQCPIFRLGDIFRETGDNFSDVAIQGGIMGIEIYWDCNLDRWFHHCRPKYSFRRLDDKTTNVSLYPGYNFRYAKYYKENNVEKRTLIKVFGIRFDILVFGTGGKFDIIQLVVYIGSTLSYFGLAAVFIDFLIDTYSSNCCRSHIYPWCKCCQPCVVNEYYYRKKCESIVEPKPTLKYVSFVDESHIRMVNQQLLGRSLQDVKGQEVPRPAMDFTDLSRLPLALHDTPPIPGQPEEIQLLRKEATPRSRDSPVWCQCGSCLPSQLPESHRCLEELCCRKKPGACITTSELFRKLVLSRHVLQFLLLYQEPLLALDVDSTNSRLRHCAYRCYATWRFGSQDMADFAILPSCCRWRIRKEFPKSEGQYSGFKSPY

How the values were obtained:
Conditions in all cases: cited from earlier work
P2X2 = target: T1, P2X2 (Homo sapiens, UniProt Q9UBL9)
T1 sequence (Q9UBL9 1-471): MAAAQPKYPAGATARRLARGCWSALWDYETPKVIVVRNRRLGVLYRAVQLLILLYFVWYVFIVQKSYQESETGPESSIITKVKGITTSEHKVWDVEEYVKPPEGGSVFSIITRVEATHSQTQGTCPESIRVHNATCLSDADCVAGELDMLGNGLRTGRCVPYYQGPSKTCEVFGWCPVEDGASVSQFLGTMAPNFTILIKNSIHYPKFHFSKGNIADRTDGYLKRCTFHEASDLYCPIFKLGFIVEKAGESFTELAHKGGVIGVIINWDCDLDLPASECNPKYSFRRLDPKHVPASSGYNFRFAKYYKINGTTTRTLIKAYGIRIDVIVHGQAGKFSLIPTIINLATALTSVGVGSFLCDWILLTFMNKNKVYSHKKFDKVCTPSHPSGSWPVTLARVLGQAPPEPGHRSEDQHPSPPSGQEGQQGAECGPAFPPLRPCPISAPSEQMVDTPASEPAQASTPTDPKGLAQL

P2X4 = target: T2, P2X4 (Homo sapiens, UniProt Q99571)
T2 sequence (Q99571 1-388): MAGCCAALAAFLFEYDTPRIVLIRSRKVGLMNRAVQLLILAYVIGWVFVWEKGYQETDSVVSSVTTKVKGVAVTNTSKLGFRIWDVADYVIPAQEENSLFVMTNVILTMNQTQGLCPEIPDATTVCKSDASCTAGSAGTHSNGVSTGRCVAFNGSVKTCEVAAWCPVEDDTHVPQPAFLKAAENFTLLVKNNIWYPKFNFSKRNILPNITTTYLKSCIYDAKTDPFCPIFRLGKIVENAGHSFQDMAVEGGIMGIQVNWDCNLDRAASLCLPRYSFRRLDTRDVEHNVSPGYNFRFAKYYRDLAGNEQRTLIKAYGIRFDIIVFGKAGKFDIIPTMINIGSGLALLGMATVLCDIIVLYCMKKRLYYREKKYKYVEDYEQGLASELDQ

P2X5 = P2X5 (Homo sapiens, UniProt Q93086)
P2X7 = P2X7 (Homo sapiens, UniProt Q99572)

Structure (SMILES)	IC50 (P2X2)	IC50 (P2X4)	IC50 (P2X5)	IC50 (P2X7)
O=C(Nc1cccc(C(=O)Nc2ccc(S(=O)(=O)O)c3cc(S(=O)(=O)O)cc(S(=O)(=O)O)c23)c1)Nc1cccc(C(=O)Nc2ccc(S(=O)(=O)O)c3cc(S(=O)(=O)O)cc(S(=O)(=O)O)c23)c1 [NF023]	63 µM	–	–	–
Cc1nc(N=Nc2ccc(S(=O)(=O)O)cc2S(=O)(=O)O)c(COP(=O)(O)O)c(C=O)c1O [PPADS, tetrasodium salt of pyridoxalphosphate-6-azophenyl-2',4'-disulfonic acid]	2 µM	27.5 µM	2.6 µM	4.2 µM
